Assay results: ChEMBL document CHEMBL1129385, “Aspartic acid conjugates of 2-(3,4-dichlorophenyl)-N-methyl-N-[(1S)-1(3-aminophenyl)-2-(1-pyrrolidi nyl) ethyl]acetamide: kappa opioid receptor agonists with limited access to the central nervous system” (J Med Chem, 1996)

What was measured:
[1] = tested on: Mus musculus; assay: Compound was evaluated for Antinociceptive potencies in mice for in vivo activity Mouse abdominal stretch assay by iv administration; conditions: Abdomen
[2] = tested on: Mus musculus; assay: Compound was evaluated for Antinociceptive potencies in mice for in vivo activity in mouse tail-flick by iv administration
[3] = tested on: Mus musculus; assay: Compound was evaluated for Antinociceptive potencies in mice for in vivo activity in Mouse abdominal stretch assay by icv administration; conditions: Abdomen
[4] = species: Mus musculus; assay: Compound was tested for its agoinst potencies on the electrically stimulated mouse vas deferens

In the case of `CN(C(=O)Cc1ccc(Cl)c(Cl)c1)[C@H](CN1CCCC1)c1cccc(NC(=O)[C@H](N)CC(=O)O)c1`, the ED50 [1] is reported as 2.02 µmol/kg and the ED50 [2] is reported as 2.02 µmol/kg.
In the case of `CN(C(=O)Cc1ccc(Cl)c(Cl)c1)[C@H](CN1CCCC1)c1cccc(NC(=O)[C@@H](N)CC(=O)O)c1`, the ED50 [1] is reported as 0.105 µmol/kg.
`CN(C(=O)Cc1ccc(Cl)c(Cl)c1)[C@H](CN1CCCC1)c1ccccc1` gave an ED50 [3] of 0.0118 µmol/kg, an IC50 [4] of 2.5 nM and an ED50 [1] of 0.0165 µmol/kg.
For `CN(C(=O)Cc1ccc(Cl)c(Cl)c1)[C@H](CN1CCCC1)c1cccc(NC(=O)C[C@H](N)C(=O)O)c1`, the ED50 [1] was 0.628 µmol/kg.
